The record followed here is paper PMC4354947 (Journal of medicinal chemistry, 2012).

Experiment [1] has as its system ADP-induced platelet aggregation. In words: Platelet aggregation in human platelet-rich plasma. Format: cell-based.
In the next experiment the test system is hP2Y12R. Briefly: Increase in [Ca2+]i in U-205 cells stably transfected with hP2Y12R. The class given is cell-based, human.

In the case of `[BH3-][P@@](=O)(OC[C@H]1O[C@@H](n2cnc3c(N)nc(SC)nc32)[C@H](O)[C@@H]1O)OP(=O)([O-])[O-].[Na+].[Na+].[Na+]` [analogue 3A, 2-Methylthioadenosine 5′-O-(′-Borano)diphosphate, A Isomer], in experiment [1] (10 μM, ADP 10 μM, human plasma), the “fold reduction of ADP-induced platelet aggregation” value came to 8 fold. For the same molecule, the “induction of platelet aggregation” value in experiment [1] (human PRP, analogue alone, data not shown) is given as “does not cause platelet aggregation”. Further, the “activity at the P2Y12R relative to ADP” value in the experiment with hP2Y12R is on record as “partial agonist activity”.
